Source: US11472838B2, “Inhibitors of blood coagulation factor XIII” (Zedira GmbH, priority 2018, dated 2022)

By UniProt entry, the sequences of proteins in these tests, tags left out.
UniProt P21980, whole entry: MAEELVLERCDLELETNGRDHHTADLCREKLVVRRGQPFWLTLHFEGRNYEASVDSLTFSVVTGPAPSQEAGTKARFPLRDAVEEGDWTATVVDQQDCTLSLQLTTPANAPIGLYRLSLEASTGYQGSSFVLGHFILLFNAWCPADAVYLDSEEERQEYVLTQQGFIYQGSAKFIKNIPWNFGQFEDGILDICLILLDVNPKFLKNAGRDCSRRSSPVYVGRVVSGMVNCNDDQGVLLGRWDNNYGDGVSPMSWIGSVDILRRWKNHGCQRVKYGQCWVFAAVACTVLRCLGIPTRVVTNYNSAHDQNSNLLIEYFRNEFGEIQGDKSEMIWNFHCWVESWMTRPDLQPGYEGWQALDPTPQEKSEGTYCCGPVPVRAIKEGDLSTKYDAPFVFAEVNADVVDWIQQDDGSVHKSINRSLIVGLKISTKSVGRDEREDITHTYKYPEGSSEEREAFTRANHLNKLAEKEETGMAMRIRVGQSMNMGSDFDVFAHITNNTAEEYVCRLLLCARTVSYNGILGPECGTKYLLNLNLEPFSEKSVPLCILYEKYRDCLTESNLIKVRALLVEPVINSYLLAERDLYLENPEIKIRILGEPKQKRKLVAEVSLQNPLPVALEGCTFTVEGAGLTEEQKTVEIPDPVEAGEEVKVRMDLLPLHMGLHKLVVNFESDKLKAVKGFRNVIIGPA

Target: TG2 (Homo sapiens (Human), UniProt P21980)
Experiment: Inhibitory activity against TG2 (isopeptidase assay), Tables 3 and 4
Assay type: biochemical
Settings: TG2 versus FXIII, Table 4

Compound	Selectivity
C=C1C[C@@H](C(=O)N[C@@H](CC(C)C)C(=O)N[C@H](C(N)=O)C2CCCCC2)N(C(=O)[C@@H](NC(=O)[C@H](CC/C=C/C(=O)OCC)NC(=O)c2ccc([N+](=O)[O-])cc2C(=O)O)C(C)(C)C)C1 [Compound 42a]	9.5 and 12.1

Test system: not listed separately
Experiment: Stability of compounds in plasma (HPLC)
Settings: 37° C., over a period of 2 hours

Compound	recovery in plasma determined by HPLC [%]
COC(=O)/C=C/CC[C@H](NC(=O)c1cc([N+](=O)[O-])ccc1C(=O)O)C(=O)N[C@H](C(=O)N1CC[C@H]1C(=O)N[C@H](C(=O)N[C@H](C(N)=O)C1CCCCC1)C1CCCCC1)C(C)(C)C	> 75
COC(=O)/C=C/CC[C@H](NC(=O)c1cc([N+](=O)[O-])ccc1C(=O)O)C(=O)N[C@H](C(=O)N1CC=C[C@H]1C(=O)NC(C(=O)N[C@H](C(N)=O)C1CCCCC1)C1CCCCC1)C(C)(C)C (stereo partly shown)	> 75
COC(=O)/C=C/CC[C@H](NC(=O)c1cc([N+](=O)[O-])ccc1C(=O)O)C(=O)N[C@H](C(=O)N1C[C@H](OCc2ccccc2)C[C@H]1C(=O)N[C@H](C(=O)N[C@H](C(N)=O)C1CCCCC1)C1CCCCC1)C(C)(C)C	> 75
COC(=O)/C=C/CC[C@H](NC(=O)c1cc([N+](=O)[O-])ccc1C(=O)O)C(=O)N[C@H](C(=O)N1C[C@H]2[C@@H]([C@H]1C(=O)N[C@H](C(=O)N[C@H](C(N)=O)C1CCCCC1)C1CCCCC1)C2(C)C)C(C)(C)C	> 75
COC(=O)/C=C/CC[C@H](NC(=O)c1cc([N+](=O)[O-])ccc1C(=O)O)C(=O)N[C@@H](CC1CC1)C(=O)N1CC(=O)C[C@H]1C(=O)N[C@H](C(=O)N[C@H](C(N)=O)C1CCCCC1)C1CCCCC1	> 75
COC(=O)/C=C/CC[C@H](NC(=O)c1cc([N+](=O)[O-])ccc1C(=O)O)C(=O)N[C@H](C(=O)N1C[C@H](O)C[C@H]1C(=O)N[C@H](C(=O)N[C@H](C(N)=O)C1CCCCC1)C1CCCCC1)C(C)(C)C	> 75
COC(=O)/C=C/CC[C@H](NC(=O)c1cc([N+](=O)[O-])ccc1C(=O)O)C(=O)N[C@H](C(=O)N1C[C@H](Oc2ccccc2)C[C@H]1C(=O)N[C@H](C(=O)N[C@H](C(N)=O)C1CCCCC1)C1CCCCC1)C(C)(C)C	> 75
COC(=O)/C=C/CC[C@H](NC(=O)c1cc([N+](=O)[O-])ccc1C(=O)O)C(=O)N[C@H](C(=O)N1C[C@@H](F)C[C@H]1C(=O)N[C@H](C(=O)N[C@H](C(N)=O)C1CCCCC1)C1CCCCC1)C(C)(C)C	> 75
COC(=O)/C=C/CC[C@H](NC(=O)c1cc([N+](=O)[O-])ccc1C(=O)O)C(=O)N[C@H](C(=O)N1CCCC[C@H]1C(=O)N[C@H](C(=O)N[C@H](C(N)=O)C1CCCCC1)C1CCCCC1)C(C)(C)C	> 75
C=C1C[C@@H](C(=O)N[C@H](C(=O)N[C@H](C(N)=O)C2CCCCC2)C2CCCCC2)N(C(=O)[C@@H](NC(=O)[C@H](CC/C=C/C(=O)OC)NC(=O)c2cc([N+](=O)[O-])ccc2C(=O)O)C(C)(C)C)C1	> 75
COC(=O)/C=C/CC[C@H](NC(=O)c1cc([N+](=O)[O-])ccc1C(=O)O)C(=O)N[C@H](C(=O)N1COC[C@H]1C(=O)N[C@H](C(=O)N[C@H](C(N)=O)C1CCCCC1)C1CCCCC1)C(C)(C)C	> 75
COC(=O)/C=C/CC[C@H](NC(=O)c1cc([N+](=O)[O-])ccc1C(=O)O)C(=O)N[C@H](C(=O)N1CC(F)(F)C[C@H]1C(=O)N[C@H](C(=O)N[C@H](C(N)=O)C1CCCCC1)C1CCCCC1)C(C)(C)C	> 75
COC(=O)/C=C/CC[C@H](NC(=O)c1cc([N+](=O)[O-])ccc1C(=O)O)C(=O)N[C@H](C(=O)N1CCC[C@@H](C(=O)N[C@H](C(=O)N[C@H](C(N)=O)C2CCCCC2)C2CCCCC2)C1)C(C)(C)C	> 75
COC(=O)/C=C/CC[C@H](NC(=O)c1cc([N+](=O)[O-])ccc1C(=O)O)C(=O)N[C@H](C(=O)N1C[C@H](F)C[C@H]1C(=O)N[C@H](C(=O)N[C@H](C(N)=O)C1CCCCC1)C1CCCCC1)C(C)(C)C	> 75
COC(=O)/C=C/CC[C@H](NC(=O)c1cc([N+](=O)[O-])ccc1C(=O)O)C(=O)N[C@H](C(=O)N1C[C@@H](Oc2ccccc2)C[C@H]1C(=O)N[C@H](C(=O)N[C@H](C(N)=O)C1CCCCC1)C1CCCCC1)C(C)(C)C	> 75
COC(=O)/C=C/CC[C@H](NC(=O)c1cc([N+](=O)[O-])ccc1C(=O)O)C(=O)N[C@H](C(=O)N1C2CCCCC2C[C@H]1C(=O)NC(C(=O)N[C@H](C(N)=O)C1CCCCC1)C1CCCCC1)C(C)(C)C (stereo partly shown)	> 75
COC(=O)/C=C/CC[C@H](NC(=O)c1cc([N+](=O)[O-])ccc1C(=O)O)C(=O)N[C@H](C(=O)N1CC(=O)C[C@H]1C(=O)N[C@H](C(=O)N[C@H](C(N)=O)C1CCCCC1)C1CCCCC1)C(C)(C)C	> 75
CCOC(=O)/C=C/CC[C@H](NC(=O)c1cc([N+](=O)[O-])ccc1C(=O)O)C(=O)N[C@H](C(=O)N1CC(=O)C[C@H]1C(=O)N[C@H](C(=O)N[C@H](C(N)=O)C1CCCCC1)C1CCCCC1)C(C)(C)C	> 75

Where “and” joins values, the source holds several entries; their conditions need not be identical. Identical values can stand only once.
